The text below walks through data of patent US20220112217A1, “PYRAZOLOPYRIMIDINE DERIVATIVE AND USE THEREOF AS PI3K INHIBITOR” (MEDSHINE DISCOVERY INC., priority 2018, published 2022).

Chains of the proteins cited; added tags and fusions are not shown.
UniProt P48736, whole entry: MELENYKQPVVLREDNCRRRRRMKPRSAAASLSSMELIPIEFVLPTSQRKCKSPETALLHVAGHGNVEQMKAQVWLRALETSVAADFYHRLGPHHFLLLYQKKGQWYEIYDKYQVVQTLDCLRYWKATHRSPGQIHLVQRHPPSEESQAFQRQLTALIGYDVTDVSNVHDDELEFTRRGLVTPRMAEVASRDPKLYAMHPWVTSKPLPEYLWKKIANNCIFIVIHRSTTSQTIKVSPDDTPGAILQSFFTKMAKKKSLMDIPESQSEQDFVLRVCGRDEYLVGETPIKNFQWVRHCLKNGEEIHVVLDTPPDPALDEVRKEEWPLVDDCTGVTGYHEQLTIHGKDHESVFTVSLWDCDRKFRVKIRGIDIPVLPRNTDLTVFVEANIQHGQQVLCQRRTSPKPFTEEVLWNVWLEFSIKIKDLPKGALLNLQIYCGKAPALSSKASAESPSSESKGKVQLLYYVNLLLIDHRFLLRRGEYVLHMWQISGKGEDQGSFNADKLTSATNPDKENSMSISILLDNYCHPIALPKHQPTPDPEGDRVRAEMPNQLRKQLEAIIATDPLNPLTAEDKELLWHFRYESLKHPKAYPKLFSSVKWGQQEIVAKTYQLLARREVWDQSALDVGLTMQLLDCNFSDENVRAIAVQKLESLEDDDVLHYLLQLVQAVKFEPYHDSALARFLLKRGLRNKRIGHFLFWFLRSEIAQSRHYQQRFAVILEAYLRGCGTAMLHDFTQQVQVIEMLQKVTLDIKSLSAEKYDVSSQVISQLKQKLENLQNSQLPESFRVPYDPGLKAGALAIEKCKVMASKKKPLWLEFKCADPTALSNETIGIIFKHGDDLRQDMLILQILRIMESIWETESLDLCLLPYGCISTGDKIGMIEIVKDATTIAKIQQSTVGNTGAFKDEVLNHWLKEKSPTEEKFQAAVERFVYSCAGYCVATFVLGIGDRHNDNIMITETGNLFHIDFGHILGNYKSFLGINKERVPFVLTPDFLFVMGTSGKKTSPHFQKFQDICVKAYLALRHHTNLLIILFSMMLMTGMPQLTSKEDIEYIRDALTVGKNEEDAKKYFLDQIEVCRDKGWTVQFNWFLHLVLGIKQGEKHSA

One data set relates to Jeko-1 cell. The data set can be described thus: Jeko-1 cell test (IgM-stimulated, phosphorylated AKT readout). The settings on record: read-out: Jeko-1 Cell IC50; 2 h compound, IgM stimulation 10 min, phospho-AKT.
The target of the next data set is PI3K gamma (Homo sapiens, UniProt P48736). The data set can be described thus: In vitro enzyme activity assay (ADP-Glo lipid kinase), PI3K gamma. The settings on record: read-out: PI3Kγ IC50; ATP 25 μM, PIP2:3PS 50 μM, 120 min.
Data set [1] is described as follows: In vivo DMPK study, single dose in female Balb/c mice.
The nature of data set [2]: Plasma protein binding rate, mouse. Type of data set: in vitro ADME.
Data set [3] can be described thus: Plasma protein binding rate, human. Type of data set: in vitro ADME.

For `COc1ccc(-c2nn(C(C)c3nc4ccc(F)cn4c(=O)c3-c3cccc(F)c3)c3ncnc(N)c23)cc1F` (stereo not drawn) [WX009], the half-maximal inhibitory concentration (IC50) in the data set on Jeko-1 cell came to 273 nM; at PI3K gamma it was 427 nM. The compound further yielded a Cmax in data set [1] (oral 3 mg/kg, female Balb/c mice) of 2860 nM. Also, the “Oral DNAUC (dose-normalized area under curve)” value in data set [1] (oral, mice) is listed as 4968 nM · h/mpk. The “PPB % (plasma protein binding rate)” value in data set [2] is recorded as 92.3%; in data set [3], 86.9%,.
